This is a selection; strong and weak results do not stand in their true shares. Some results for these compounds are left out of this collection, so the calls shown say nothing about other tests. The source made the active and inactive calls. Calls follow the shape of the dose curve; as a rule, active = well fitted activation curve with a large enough effect; inconclusive = small, poorly fitted or top-dose-only effect; inactive = flat fitted curve, though single readings scatter.
Experiment: qHTS Assay for Modulators of Hemoglobin Beta Chain Splicing; also: 0% is about no effect
Conditions: HBB splicing reporter cell assay, EGFP reporter with mutant IVS2-654 intron, normalised to 500 nM splice-correcting PNA; at 9.22 µM unless noted
Source text: NIH Chemical Genomics Center [NCGC]
NIH Molecular Libraries Screening Centers Network [MLSCN]
PI Name: Dr. Ryszard Kole
Modulation of Alternative Splicing as Therapy
Abnormal splicing is associated with a number of diseases, including cancer and genetic diseases such as cystic fibrosis, muscular dystrophy and beta-thalassemia. Alteration of disease associated splicing patterns provides a promising target for treatment. […] Mutations in the second intron of the beta-globin gene at positions are clinically relevant and cause mis-splicing which results in an out of frame gene product.
EGFP-654 and 705 HeLa Cells as screen system.
HeLa cell lines were stably transfected with a construct in which the EGFP (enhanced green fluorescent protein) cDNA was interrupted by the second intron of the beta-globin gene (IVS2-654). The ISV2 intron contains mutations which cause mis-splicing of EGFP and premature termination of EGFP which results in a nonfluorescent protein product. […] Expression of the transgene was driven by the CMV promoter. We concluded that a low molecular weight compound, which restored correct splicing of intron 2 would also generate functional EGFP protein, resulting in a fluorescent signal. Thus, the HeLa cells that express the EGFP-654 construct can be used for high throughput screening of a chemical library.
NCGC Assay Protocol Summary:
High Throughput Screening. Freshly thawed HeLa EGFP-654 cells were seeded in 5 ul of optimem media (Invitrogen) containing 2 % fetal calf serum (Hyclone) and 1x penicillin/streptomycin (Invitrogen) at a concentration of 500 cells per well in 1536-well plates. Cells were incubated overnight at 37C in 5% CO2. The next day, cells were treated with DMSO, 500 nM antisense ISV2 654 PNA control oligo, or library compound and allowed to grow at 37C in 5% CO2 for 2 days. The PNA oligo blocked the mutation site in the intron and allowed proper (wild type) splicing to occur, resulting in full length EGFP expression and also allowed for optimization of the assay parameters. Plates were read in the Acumen Explorer (TTP Labtech) using 488 nm laser excitation and 500-520 nm emission PMT filter in a 1 x […] capture mode. Fluorescnet Fluorescent objects ranging in size from […] were measured and the total peak GFP intensity for each well was used for data analysis.
Keywords: Thalassemia, beta-thalassemia, beta-globin, EGFP, ISV2 654, ISV2 705, SSO, PNA, antisense, splicing, MLSMR, MLSCN, NIH Roadmap, qHTS, NCGC

SMILES	activation
CN(C)c1cccc(C(=O)NCC2(N(C)C)CCCCC2)c1	inactive: -2.46% [at 46.1 µM]
CN1CCC[C@H](OC(=O)[C@](O)(c2ccccc2)C2CCCC2)C1	inactive: 3.64%
CN1CC[C@H](OC(=O)[C@](O)(c2ccccc2)C2CCCC2)C1	inactive: 4.11%
C=C(C)C#C[C@@](O)(C(=O)OC1CCN(C)CC1)c1ccccc1	inactive: 0.866%

— PubChem BioAssay AID925 (National Center for Advancing Translational Sciences (NCATS), 2007)
